Columns and labels:
CB1 receptor = CB1 receptor (Homo sapiens, UniProt P21554); test: [3H]CP-55,940 radioligand competition binding, CB1; details: read-out: Ki (CB1); [3H]CP-55,940 displacement
CB2 receptor = CB2 receptor (Homo sapiens, UniProt P34972); test: [3H]CP-55,940 radioligand competition binding, CB2; set-up: host or cells: cell membrane preparations; details: for SI: selectivity index for CB2: Ki(CB1)/Ki(CB2) ratio

The chains behind the UniProt entries cited, without tags or fusion partners.
UniProt P21554, whole entry: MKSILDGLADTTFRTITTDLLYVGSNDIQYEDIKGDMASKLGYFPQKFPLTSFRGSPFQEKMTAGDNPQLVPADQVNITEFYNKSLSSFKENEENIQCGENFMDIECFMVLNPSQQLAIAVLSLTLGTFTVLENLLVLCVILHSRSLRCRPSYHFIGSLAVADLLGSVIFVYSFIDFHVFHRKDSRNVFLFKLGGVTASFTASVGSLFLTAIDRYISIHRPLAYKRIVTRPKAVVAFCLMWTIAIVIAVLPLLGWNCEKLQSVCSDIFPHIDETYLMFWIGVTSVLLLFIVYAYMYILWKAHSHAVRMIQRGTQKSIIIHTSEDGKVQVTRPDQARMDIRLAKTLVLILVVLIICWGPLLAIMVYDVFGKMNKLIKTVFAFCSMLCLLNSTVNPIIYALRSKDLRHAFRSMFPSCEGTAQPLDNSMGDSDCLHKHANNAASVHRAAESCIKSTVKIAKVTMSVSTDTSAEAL
UniProt P34972, whole entry: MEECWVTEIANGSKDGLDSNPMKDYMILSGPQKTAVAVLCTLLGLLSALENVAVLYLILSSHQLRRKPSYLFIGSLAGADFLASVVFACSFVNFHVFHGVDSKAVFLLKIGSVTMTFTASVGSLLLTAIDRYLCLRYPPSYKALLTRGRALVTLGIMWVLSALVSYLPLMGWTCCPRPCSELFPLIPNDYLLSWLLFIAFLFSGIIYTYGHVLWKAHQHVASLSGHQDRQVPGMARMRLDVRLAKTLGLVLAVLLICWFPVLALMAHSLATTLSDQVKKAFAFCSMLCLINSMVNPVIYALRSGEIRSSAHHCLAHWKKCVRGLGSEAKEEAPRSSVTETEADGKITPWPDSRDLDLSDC

SMILES	Ki (CB1 receptor) [nM]	SI: selectivity index for CB2 (CB2 receptor)	Ki (CB2 receptor; [3H]CP-55,940 displacement) [nM]
CCN(CC)c1ccc(CN(c2ccc(C)cc2)S(=O)(=O)c2ccc(C)cc2)cc1 [Compound 94, N-(4-(Diethylamino)benzyl)-4-methyl-N-(p-tolyl)benzenesulfonamide]	437	80	–
CCN(CC)c1ccc(CN(C23CC4CC(CC(C4)C2)C3)S(=O)(=O)c2ccc(C)cc2)cc1 [Compound 60, N-((3s,5s,7s)-Adamantan-1-yl)-N-(4-(diethylamino)benzyl)-4-methylbenzenesulfonamide]	–	–	47
CCN(CC)c1ccc(CN(C23CC4CC(CC(C4)C2)C3)S(=O)(=O)c2ccc(F)cc2)cc1 [Compound 57, N-((3s,5s,7s)-Adamantan-1-yl)-N-(4-(diethylamino)benzyl)-4-fluorobenzenesulfonamide]	–	170	–
CCN(CC)c1ccc(CN(C23CC4CC(CC(C4)C2)C3)S(=O)(=O)c2cccc(C)c2)cc1 [Compound 61, N-((3s,5s,7s)-Adamantan-1-yl)-N-(4-(diethylamino)benzyl)-3-methylbenzenesulfonamide]	–	432	–

From patent US9376380B2 (University of Pittsburgh—Of the Commonwealth System of …, priority 2011, dated 2016)
